Test results reported in ChEMBL document CHEMBL5247577, “Improved Selective Class I HDAC and Novel Selective HDAC3 Inhibitors: Beyond Hydroxamic Acids and Benzamides” (ACS Med Chem Lett, 2019).

Amino acid sequences for entries named in this document (tags omitted). A change or cut given only in a name is not applied to a line headed by its entry.
UniProt O15379: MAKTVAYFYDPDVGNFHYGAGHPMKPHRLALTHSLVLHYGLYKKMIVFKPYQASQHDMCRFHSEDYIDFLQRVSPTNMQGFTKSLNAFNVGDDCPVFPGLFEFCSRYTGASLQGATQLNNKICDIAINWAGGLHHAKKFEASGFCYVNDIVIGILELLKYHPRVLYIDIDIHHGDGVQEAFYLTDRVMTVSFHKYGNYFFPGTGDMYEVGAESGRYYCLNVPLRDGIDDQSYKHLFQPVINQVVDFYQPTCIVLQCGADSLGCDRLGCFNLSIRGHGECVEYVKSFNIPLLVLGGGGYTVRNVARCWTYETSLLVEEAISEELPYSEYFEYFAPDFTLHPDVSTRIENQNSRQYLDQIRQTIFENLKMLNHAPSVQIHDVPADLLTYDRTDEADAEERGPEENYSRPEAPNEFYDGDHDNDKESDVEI

Molecular target: Histone deacetylase 3 (Homo sapiens, UniProt O15379)

Row | Structure (SMILES) | IC50 [µM]
1 | CNC(=O)CCCCC[C@H](NC(=O)CCc1c[nH]c2ccccc12)c1ncc(-c2ccc(-n3cccn3)cc2)[nH]1 | 0.042
2 | CNC(=O)CCCCC[C@H](NC(=O)CCc1c[nH]c2ccccc12)c1ncc(-c2ccc(CN(C)C)cc2)[nH]1 | 0.026
3 | CNC(=O)CCCCC[C@H](NC(=O)c1cncs1)c1ncc(-c2ccc3ccccc3c2)[nH]1 | 0.235
4 | CNC(=O)CCCCC[C@H](NC(=O)c1cncs1)c1ncc(-c2ccc(CN(C)C)cc2)[nH]1 | 0.162
5 | CNC(=O)CCCCC[C@H](NC(=O)c1cncs1)c1ncc(-c2ccc(-n3cccn3)cc2)[nH]1 | 0.223
